Amino acid sequences for entries named in this document (tags omitted).
UniProt Q5JUK3, whole entry: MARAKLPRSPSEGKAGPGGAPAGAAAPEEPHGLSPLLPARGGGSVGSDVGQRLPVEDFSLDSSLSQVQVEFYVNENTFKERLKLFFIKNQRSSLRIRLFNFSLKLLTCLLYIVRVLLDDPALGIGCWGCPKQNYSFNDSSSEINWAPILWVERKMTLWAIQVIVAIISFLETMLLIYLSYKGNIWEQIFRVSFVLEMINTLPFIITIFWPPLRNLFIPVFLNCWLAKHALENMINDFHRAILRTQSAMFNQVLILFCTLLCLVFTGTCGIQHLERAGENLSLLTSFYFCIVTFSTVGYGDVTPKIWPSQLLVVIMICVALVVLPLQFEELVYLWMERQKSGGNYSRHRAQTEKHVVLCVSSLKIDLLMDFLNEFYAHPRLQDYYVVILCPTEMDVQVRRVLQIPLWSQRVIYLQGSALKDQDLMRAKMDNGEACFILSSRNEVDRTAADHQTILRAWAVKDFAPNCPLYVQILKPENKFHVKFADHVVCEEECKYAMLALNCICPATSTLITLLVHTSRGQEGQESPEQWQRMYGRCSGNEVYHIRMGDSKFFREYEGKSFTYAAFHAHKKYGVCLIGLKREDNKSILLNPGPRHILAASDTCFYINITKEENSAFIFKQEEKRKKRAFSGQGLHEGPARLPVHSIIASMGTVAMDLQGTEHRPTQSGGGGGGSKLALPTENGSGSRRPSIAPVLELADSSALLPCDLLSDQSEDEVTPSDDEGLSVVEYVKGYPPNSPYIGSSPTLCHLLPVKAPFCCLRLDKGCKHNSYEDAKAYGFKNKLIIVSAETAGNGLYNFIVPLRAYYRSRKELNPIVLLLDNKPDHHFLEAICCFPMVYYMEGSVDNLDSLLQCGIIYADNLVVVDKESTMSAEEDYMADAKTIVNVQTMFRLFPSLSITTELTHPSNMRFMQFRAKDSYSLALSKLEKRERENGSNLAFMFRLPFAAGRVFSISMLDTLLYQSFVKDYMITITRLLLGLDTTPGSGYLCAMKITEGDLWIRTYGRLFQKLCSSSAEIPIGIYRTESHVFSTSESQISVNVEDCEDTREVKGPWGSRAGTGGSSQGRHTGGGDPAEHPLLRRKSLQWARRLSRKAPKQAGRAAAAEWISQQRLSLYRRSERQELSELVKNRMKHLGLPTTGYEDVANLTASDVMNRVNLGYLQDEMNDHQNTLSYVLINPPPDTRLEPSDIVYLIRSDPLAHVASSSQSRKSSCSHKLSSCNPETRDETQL

According to patent US20220259193A1, “KCNT1 INHIBITORS AND METHODS OF USE” (Praxis Precision Medicines, Inc., priority 2019, published 2022):

Biological target: KCNT1 (KNa1.1, Slack) (Homo sapiens, UniProt Q5JUK3)
Assay: KCNT1 patch clamp assay (SyncroPatch 384PE automated patch clamp)
Assay type: cell-based
Conditions: read-out: KCNT1-WT IC50; tetracycline inducible HEK-TREX cell line; perforated patch; step from −80 mV to 0 mV; room temperature

pIC50: > 6.00
Structure (SMILES): Cc1cccc(-c2noc(C(C)NC(=O)c3cc(C(F)(F)F)nn3CC(F)F)n2)c1 (single isomer, unassigned)

pIC50: −log10 of the molar value.
